# CycPeptMPDB entries from one study

Values of Townsend et al. 2020, doi:10.26434/chemrxiv.13335941.v1, as listed in CycPeptMPDB.

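Lipid, pH, incubation time, direction and concentration are not recorded in the data file. The list need not hold all peptides of the study. Peptides that the database sets to -10, its floor, are left out.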

PAMPA measures passive passage through an artificial lipid membrane.
Permeability is given as log10 of P in cm/s; higher (less negative) is more permeable.

- CC(C)C[C@H]1NC(=O)[C@@H]2CCCN2C(=O)[C@H](CC(C)C)N(C)C(=O)CN(Cc2ccccc2)C(=O)[C@H](C)N(C)C(=O)[C@H]2CCCN2C(=O)[C@H](Cc2ccccc2)NC1=O: PAMPA -6.06 (log10 cm/s)
- CC(C)C[C@@H]1NC(=O)[C@@H]2CCCN2C(=O)[C@H](CC(C)C)N(C)C(=O)[C@H](CC(C)C)NC(=O)[C@@H](C)N(C)C(=O)[C@H]2CCCN2C(=O)[C@H](Cc2ccccc2)NC1=O: PAMPA -5.38 (log10 cm/s)
- CC(C)C[C@@H]1C(=O)N[C@H](CC(C)C)C(=O)N2CCC[C@@H]2C(=O)N[C@H](CC(C)C)C(=O)N[C@@H](Cc2ccccc2)C(=O)N[C@@H](Cc2ccccc2)CC(=O)N1C: PAMPA -5.92 (log10 cm/s)
- CC(C)C[C@@H]1NC(=O)[C@H]2CCCN2C(=O)[C@H](CC(C)C)N(C)C(=O)[C@H](CC(C)C)N(C)C(=O)[C@@H](C)NC(=O)[C@@H]2CCCN2C(=O)[C@H](Cc2ccccc2)NC1=O: PAMPA -6.18 (log10 cm/s)
- CCCN1CC(=O)N(C)[C@H](CC(C)C)C(=O)N[C@@H](CC(C)C)C(=O)N2CCC[C@@H]2C(=O)N[C@@H](CC(C)C)C(=O)N[C@@H](Cc2ccccc2)C(=O)N2CCC[C@@H]2C1=O: PAMPA -5.79 (log10 cm/s)
- CC(C)C[C@@H]1NC(=O)C[C@H](Cc2ccccc2)NC(=O)[C@H]2CCCN2C(=O)[C@H](Cc2ccccc2)NC(=O)CN(Cc2ccccc2)C(=O)[C@@H]2CCCN2C(=O)[C@@H](CC(C)C)NC1=O: PAMPA -5.85 (log10 cm/s)
- CC(C)C[C@@H]1C(=O)N(C)[C@H](CC(C)C)C(=O)N2CCC[C@H]2C(=O)N(C)[C@H](CC(C)C)C(=O)N[C@@H](Cc2ccccc2)C(=O)N2CCC[C@H]2C(=O)N(C)[C@H](C)C(=O)N1C: PAMPA -5.08 (log10 cm/s)
- CC(C)C[C@H]1NC(=O)[C@H](C)NC(=O)[C@H](Cc2ccccc2)NC(=O)CN(Cc2ccccc2)C(=O)[C@@H]2CCCN2C(=O)[C@H](CC(C)C)N(C)C1=O: PAMPA -5.65 (log10 cm/s)
- CCCN1CC(=O)N[C@H](CC(C)C)C(=O)N[C@@H](Cc2ccccc2)CC(=O)N2CCC[C@H]2C(=O)N(C)[C@H](CC(C)C)C(=O)N[C@@H](Cc2ccccc2)C(=O)N2CCC[C@H]2C1=O: PAMPA -5.77 (log10 cm/s)
- CC(C)C[C@@H]1NC(=O)[C@H]2CCCN2C(=O)C[C@H](Cc2ccccc2)NC(=O)[C@@H](CC(C)C)NC(=O)[C@H](C)N(C)C(=O)[C@H](Cc2ccccc2)NC1=O: PAMPA -5.95 (log10 cm/s)
- CC(C)C[C@@H]1C(=O)N(C)[C@@H](CC(C)C)C(=O)N2CCC[C@H]2C(=O)N(Cc2ccccc2)CC(=O)N[C@@H](Cc2ccccc2)C(=O)N2CCC[C@@H]2C(=O)N(C)[C@H](C)C(=O)N1C: PAMPA -5.57 (log10 cm/s)
- CC(C)C[C@H]1NC(=O)[C@@H](C)NC(=O)[C@H]2CCCN2C(=O)[C@H](Cc2ccccc2)NC(=O)[C@H](CC(C)C)N(C)C(=O)[C@@H]2CCCN2C(=O)[C@H](CC(C)C)N(C)C1=O: PAMPA -5.78 (log10 cm/s)
- CC(C)C[C@@H]1C(=O)N[C@@H](Cc2ccccc2)C(=O)N2CCC[C@H]2C(=O)N[C@@H](C)C(=O)N[C@H](CC(C)C)C(=O)N(C)[C@@H](CC(C)C)C(=O)N2CCC[C@H]2C(=O)N1C: PAMPA -5.60 (log10 cm/s)
- CC(C)C[C@@H]1C(=O)N[C@H](CC(C)C)C(=O)N2CCC[C@@H]2C(=O)N(C)[C@@H](CC(C)C)C(=O)N[C@@H](Cc2ccccc2)C(=O)N[C@@H](C)C(=O)N1C: PAMPA -4.82 (log10 cm/s)
- CC(C)C[C@@H]1C(=O)N[C@@H](Cc2ccccc2)C(=O)N2CCC[C@H]2C(=O)N[C@H](C)C(=O)N(Cc2ccccc2)CC(=O)N[C@@H](Cc2ccccc2)CC(=O)N2CCC[C@H]2C(=O)N1C: PAMPA -6.09 (log10 cm/s)

Excerpt, the opening 2 entries:

compound	PAMPA (log10 cm/s)
CC(C)C[C@H]1NC(=O)[C@@H]2CCCN2C(=O)[C@H](CC(C)C)N(C)C(=O)CN(Cc2ccccc2)C(=O)[C@H](C)N(C)C(=O)[C@H]2CCCN2C(=O)[C@H](Cc2ccccc2)NC1=O	-6.06
CC(C)C[C@@H]1NC(=O)[C@@H]2CCCN2C(=O)[C@H](CC(C)C)N(C)C(=O)[C@H](CC(C)C)NC(=O)[C@@H](C)N(C)C(=O)[C@H]2CCCN2C(=O)[C@H](Cc2ccccc2)NC1=O	-5.38